# In the library only some 2.3% were active in any assay of this set; here they are far more common.
# Nrf2 ARE act: activators of Nrf2 (ARE) signaling | AREc32 ARE-luciferase reporter (MCF7-derived line), luminescence, 24 h | Potency, µM (top dose mostly 46.1 µM), inactives show at the top dose activation, actives largely listed as activators | 410,000 tested, 0.31% active | AID 624171; further: potency means the concentration at half of the fitted maximal effect; % of control where 0% means no effect; nearly all actives have a fitted effect of over 65% in size
#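 Nrf2 activation is followed as ARE-luciferase induction in the AREc32 line after one day of compound treatment; luminescence is read with Steady-Glo.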
# Mito fusion act: mitochondrial division inhibition or fusion activation. S. cerevisiae fusion-defective mutant growth rescue, CellTiterGlo 48 h. Potency, µM (top dose mostly 46.1 µM), without a hit: top-dose growth rescue (activation), actives largely listed as activators. 320,000 tested, 0.23% active. AID 485298; further: potency means the concentration at half of the fitted maximal effect; % of control where 0% means no effect; nearly all actives have a fitted effect of over 45% in size
#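 Compounds are tested for their ability to restore growth of mitochondrial fusion-defective yeast strains at non-permissive 37C in YPEG medium over 48 hours. Viability is quantified by luciferase luminescence.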
# Glioma ERSR ind: induces the endoplasmic reticulum stress response in human glioma cells; U87-MG GRP78 promoter luciferase reporter, 16 h; Potency, µM, for the others: top-dose activation, actives largely listed as activators; 420,000 tested, 0.02% active; AID 602332; further: potency means the concentration at half of the fitted maximal effect; series mostly up to about 76 µM; % of control where 0% means no effect; nearly all actives have a fitted effect of over 35% in size
#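 ERSR induction read as luciferase luminescence (Bright-Glo, 10 min at room temperature) in stably transfected human U87-MG glioma cells exposed to compounds for 16 h, using GRP78 as sensor.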
# A549 tox-1: A549 cytotoxicity, counter-screen for Nrf2 inhibitors | 390,000 tested, 0.16% active | Potency, µM (highest dose often 46 µM), for inactives: at the top dose activity change, negative = cytotoxicity, most hits filed as inhibitors | A549 ARE-Fluc cells, CellTiter-Fluor viability, 18-24 h; further: potency means the concentration at half of the fitted maximal effect; on the % scale 0 is the no-effect control and ±100 the full control effect
#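 A549 ARE_Fluc cells in 5% FBS OPTI-MEM were exposed to compounds in concentration-response for 18-24 h at 37 deg C. Viability was read by CellTiter-Fluor fluorescence (Ex 405/Em 525) after 30 min, before the luciferase read.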
# Nrf2 block: blocks Nrf2 signaling; Potency, µM (titrated, usually from 46 µM), for inactives: at the highest dose activity change, negative = inhibition, usual class: inhibitors; 360,000 tested, 2.1% active; A549 ARE-Fluc reporter, luciferase luminescence, 18-24 h; further: potency means the concentration at half of the fitted maximal effect; on the % scale 0 is the no-effect control and ±100 the full control effect; nearly all actives have a fitted effect of over 60% in size
#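 Cells were seeded and rested 2 h, then exposed to compounds for 18-24 h. CellTiter-Fluor was read first as a viability measure. BugLite was added 15 min before the final luminescent read of ARE-luciferase activity in A549 cells.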
# miR-21 reporter: miR-21 reporter, rising signal; HeLa miR-21 FLuc reporter, luciferase, 48 h; Potency, µM (top dose mostly 38.3 µM), without a hit: at the top dose reporter change, positive = more light; 340,000 tested, under 10 active; active = well fitted rising curve with a large enough effect; inconclusive = small, poorly fitted or top-dose-only effect; inactive = no such curve, though single readings can be large or run the other way;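 note: % of control where 0% means no effect; miR-21 action dims this reporter so a rising signal means less miR-21 action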
#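 Compounds were titrated across several concentrations (up to approximately 40 uM) and incubated 48 hours with HeLa miR-21-FLuc reporter cells (miR-21 target sequence downstream of FLuc, endogenous miR-21). Readout was firefly luciferase luminescence after lytic detection reagent.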
# FLuc enzyme inh: firefly luciferase inhibition, Nrf2 hit validation; AID 720522; Potency, µM (titrated, usually from 57.5 µM), for inactives: at the top dose activity change, negative = inhibition, most hits filed as inhibitors; purified firefly luciferase, luminescence inhibition; 1,400 tested, 4% active; shares compounds with Nrf2 block; further: potency means the concentration at half of the fitted maximal effect; on the % scale 0 is the no-effect control and ±100 the full control effect; nearly all actives have a fitted effect of over 65% in size
# A549 tox-2: toxic to A549 ARE-Fluc cells in Nrf2 counterscreen | A549 ARE-Fluc cells, cytotoxicity counterscreen | Potency, µM (highest dose often 46.1 µM), without a hit: at the highest dose activity change, negative = cytotoxicity, usual class: inhibitors | shares compounds with Nrf2 block | 1,400 tested, 2% active;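 further: potency means the concentration at half of the fitted maximal effect; cells exposed to compounds for 18 to 24 hours; on the % scale 0 is the no-effect control and ±100 the full control effect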
# ARE-Fluc inh: Nrf2 inhibition confirmed, A549 ARE-luciferase. shares compounds with Nrf2 block. A549 ARE-firefly luciferase reporter, luminescence. Potency, µM (doses to about 46.1 µM), without a hit: at the highest dose activity change, negative = inhibition, hits mostly inhibitors. 1,400 tested, 74% active; further: potency means the concentration at half of the fitted maximal effect; on the % scale 0 is the no-effect control and ±100 the full control effect; nearly all actives have a fitted effect of over 65% in size
# Active calls of the source: *; ? = inconclusive; · = no result shown; [ ] = another dose, or the depositor's remark. Unless noted, the call rests on the fitted dose curve; in most records, active means well fitted curve in the direction sought with a large enough effect; inconclusive means small, poorly fitted or top-dose-only effect, or another doubt; inactive means no such curve, though single readings can be large; an effect the other way counts as inactive or inconclusive.
# Start of the listing, in advance (two entries):
no. | structure | Nrf2 ARE act | Mito fusion act | Glioma ERSR ind | A549 tox-1 | Nrf2 block | miR-21 reporter | FLuc enzyme inh | A549 tox-2 | ARE-Fluc inh
1 | CC1=C(C(=O)OC2CCCCC2)C(c2cccnc2)n2nnnc2N1 (configuration not stated) | -0.7% | ? | -2.9% | -14.1% | 8.2µM* | -15.6% | 3.9% | -16.2% | ?
2 | COC(=O)C1=C(C)Nc2nnnn2C1c1cccnc1 (configuration not stated) | 0.2% | 1.4% | -5.1% | 12.1% | · | -4.1% | · | · | ·

# Main list, from the first entry:
no. | structure | Nrf2 ARE act | Mito fusion act | Glioma ERSR ind | A549 tox-1 | Nrf2 block | miR-21 reporter | FLuc enzyme inh | A549 tox-2 | ARE-Fluc inh
1 | CC1=C(C(=O)OC2CCCCC2)C(c2cccnc2)n2nnnc2N1 (configuration not stated) | -0.7% | ? | -2.9% | -14.1% | 8.2µM* | -15.6% | 3.9% | -16.2% | ?
2 | COC(=O)C1=C(C)Nc2nnnn2C1c1cccnc1 (configuration not stated) | 0.2% | 1.4% | -5.1% | 12.1% | · | -4.1% | · | · | ·
3 | CCCCOc1ccccc1NC(=O)c1scc2c1OCCO2 | 6.0% | -3.4% | -2.4% | 0.7% | 5.17µM* | 11.1% | -14.3% | 4.5% | 6.1%
4 | CC(C(=O)Nc1ccc(O)cc1)c1cccc(C(=O)c2ccccc2)c1 (configuration not stated) | 3.1% | 3.8% | -0.8% | -25.9% | 9.2µM* | 6.5% | -14.9% | 2.0% | ?
5 | Cc1cc(C(=O)OCC(=O)N2CC(=O)Nc3ccccc32)c(C)n1-c1ccc(F)cc1 | 5.8% | 3.1% | -2.3% | ? | 9.2µM* | 17.4% | -15.8% | 0.6% | 16.4µM*
6 | Cc1cc(C(=O)OCC(=O)N2CC(=O)Nc3ccccc32)c(C)n1-c1ccccc1 | 5.1% | -0.1% | 0.3% | 0.8% | ? | 9.3% | · | · | ·
7 | COc1ccc(S(=O)(=O)Nc2ccc(F)cc2)cc1N(C)S(=O)(=O)c1ccc(Cl)cc1 | 7.6% | 26.2% | -0.3% | -28.7% | ? | 27.0% | · | · | ·
8 | COc1ccc(NS(=O)(=O)c2ccc(OC)c(N(C)S(=O)(=O)c3ccc(Cl)cc3)c2)cc1 | 6.2% | 4.6% | -0.3% | ? | 7.31µM* | 22.0% | -10.5% | ? | 8.2µM*
9 | COc1ccc(NC(=O)COc2ccc(N(C)S(=O)(=O)c3ccc(Cl)cc3)cc2)cc1OC | 2.2% | 15.3% | -5.2% | -9.1% | 9.2µM* | · | 3.4% | -11.4% | 6.51µM*
10 | COc1cccc(CN(C)C(=O)CNC(=O)c2ccc(-c3ccccc3)cc2)c1OC | -0.4% | 12.9% | -4.2% | -20.5% | 4.61µM* | 24.6% | -23.7% | -10.8% | ·
11 | Cc1cc(C)c(C(N)=O)c(SCC(=O)c2cc(C)n(-c3cc(C)on3)c2C)n1 | 0.0% | · | -2.2% | -11.7% | 2.31µM* | · | -1.1% | -7.8% | ?
12 | N#Cc1c(NC(=O)CSc2ncn[nH]2)sc2c1CCCCC2 | -1.3% | 12.0% | -12.6% | -9.4% | 0.366µM* | ? | 9.53µM* | -0.3% | 1.64µM*
13 | Cn1cnnc1SCC(=O)Nc1sc2c(c1C#N)CCCCC2 | 3.7% | -0.5% | -1.4% | -8.6%[1.84 µM] | ? | -22.1% | · | · | ·
14 | O=C(NCCCn1ccnc1)c1ccc(N2CCCCCC2)c([N+](=O)[O-])c1 | 2.5% | 11.0% | 1.2% | -18.3% | 2.91µM* | ? | -16.0% | -12.0% | 4.1%
15 | CCCN(CCC)CC(C)(C)NS(=O)(=O)c1ccc(Cl)cc1 | 0.4% | -4.6% | -3.3% | -0.2% | 4.0% | -2.9% | · | · | ·
16 | O=S(=O)(NC1CCc2ccccc21)c1ccc(S(=O)(=O)N2CCCC2)cc1 (configuration not stated) | 1.8% | 4.6% | -5.0% | -2.6% | 4.11µM* | 9.5% | 0.7% | 1.3% | ?
17 | c1ccc2c(NCCCN3CCOCC3)c3ccccc3nc2c1 | · | 5.5% | · | · | · | ? | · | · | ·
18 | Cc1ccc(C)c(CSCc2nc3ccccc3[nH]2)c1 | -0.5% | -9.2% | 0.1% | 0.2% | 2.4% | 4.2% | · | · | ·
19 | COc1cc(C2CC(=O)c3c([nH]c(C(=O)OCC4CCCCC4)c3C)C2)cc(OC)c1OC (configuration not stated) | 0.4% | · | -1.0% | -10.0% | 2.31µM* | ? | 2.1% | 0.7% | 4.61µM*
20 | COc1ccc(COC(=O)c2[nH]c3c(c2C)C(=O)CC(c2ccc(OC)c(OC)c2)C3)cc1 (configuration not stated) | -0.9% | · | 1.2% | -8.2% | 6.51µM* | 15.2% | -1.8% | -0.2% | 6.51µM*
21 | COc1ccc(-c2c[n+]3c(n2-c2ccccc2)CCCCC3)cc1 | -0.3% | 1.9% | -2.7% | -11.4% | ? | ? | · | · | ·
22 | CCOc1ccc(-n2c(-c3ccccc3)c[n+]3c2CCC3)cc1 | 0.0% | -1.8% | -6.2% | -5.8% | 2.31µM* | ? | 0.7% | -10.2% | 16.4µM*
23 | CCOc1ccc(-n2c(-c3ccc(Br)cc3)c[n+]3c2CCCCC3)cc1 | 0.6% | -10.1% | -3.1% | -14.1% | ? | ? | · | · | ·
24 | CCOc1ccc(-n2c(-c3ccc(OC)cc3)c[n+]3c2CCCCC3)cc1 | 3.6% | -0.8% | -3.3% | ? | 2.59µM* | ? | 1.5% | -19.2% | 3.66µM*
25 | CN(C(=O)COC(=O)c1ccc(C#N)cc1)c1ccccc1 | -0.7% | 9.8% | -2.1% | 2.5% | 9.6% | 0.5% | · | · | ·
26 | Cc1cc(NC(=O)Cn2nc(C(=O)O)c3ccccc3c2=O)c([N+](=O)[O-])cc1C | -0.9% | -2.9% | -0.2% | -5.9% | -1.9% | -4.3% | · | · | ·
27 | CN(Cc1ccccc1)C(=O)c1ccc(NC(=O)Cc2ccc(NC(=O)C3CCCN(C(=O)CCc4ccccc4)C3)cc2)cc1 (configuration not stated) | 1.2% | · | -1.2% | -10.9% | 2.59µM* | · | -10.4% | -10.9% | 1.64µM*
28 | CN(Cc1ccccc1)C(=O)c1ccc(NC(=O)Cc2ccc(NC(=O)C3CCCN(C(=O)C4CCC4)C3)cc2)cc1 (configuration not stated) | 3.6% | · | -1.2% | -2.2% | ? | · | · | · | ·
29 | C=CCNc1nc(C(=O)OCC(=O)c2ccccc2)cs1 | -0.6% | -0.4% | -9.5% | 15.0% | ? | -2.3% | · | · | ·
30 | CCOC(=O)C1CCCN(C(=O)c2cccc(S(=O)(=O)N3CCCC3)c2)C1 (configuration not stated) | -1.4% | -2.8% | -2.3% | -2.9% | -3.5% | · | · | · | ·
31 | O=C(Nc1ccccc1F)Nc1ccccc1N1CCCCC1 | 4.7% | -0.4% | -0.5% | ? | 5.8µM* | 15.9% | -12.5% | -2.2% | ?
32 | O=C(Nc1ncc(Cc2ccc(C(F)(F)F)cc2)s1)c1ccc(-c2cccc([N+](=O)[O-])c2)o1 | -0.1%[9.22 µM] | -4.3% | -3.7% | -4.8% | 5.8µM* | -10.5% | 1.6% | -1.1% | 6.51µM*

# Copied from above, compounds 12 to 13
no. | structure | Nrf2 ARE act | Mito fusion act | Glioma ERSR ind | A549 tox-1 | Nrf2 block | miR-21 reporter | FLuc enzyme inh | A549 tox-2 | ARE-Fluc inh
12 | N#Cc1c(NC(=O)CSc2ncn[nH]2)sc2c1CCCCC2 | -1.3% | 12.0% | -12.6% | -9.4% | 0.366µM* | ? | 9.53µM* | -0.3% | 1.64µM*
13 | Cn1cnnc1SCC(=O)Nc1sc2c(c1C#N)CCCCC2 | 3.7% | -0.5% | -1.4% | -8.6%[1.84 µM] | ? | -22.1% | · | · | ·
